Values of other authors in article PMC3005221 (Biochemistry, 2010).

Biological target: Ubp-M BUZ domain (Homo sapiens, UniProt Q9Y5T5)
Details: read-out: KD for Ubp-M BUZ domain (previously reported); earlier studies

In the case of ubiquitin, the Kd is listed as 6.5 µM.
